Properties, as collected for the OPERA models

Data: OPERA 2.9 data sets, kmansouri/OPERA on GitHub.

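The numbers are reported measurements, compiled and curated for the OPERA QSAR suite. The files give a single number for a compound and property, which may rest on several reports. Conditions of the individual experiments are not part of the data. A value may pool stereoisomers or salt forms, and the file does not say which form was measured. Some entries may be limits or estimates that an upstream database listed as plain numbers.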

The melting point is given in degrees Celsius.
logP is the log10 of the octanol-water partition coefficient; higher is more lipophilic.
Solubility in water is on a log10 molar scale (set defined at 25 °C).
Vapor pressures (log10 mmHg) refer to near room temperature, 15 to 30 °C; higher is more volatile.
The Henry's law constant is on a log10 scale in atm·m3/mol (set defined at 25 °C); higher favours air over water.
fu is the fraction unbound in human plasma, from 0 to 1.
Clint is human hepatic intrinsic clearance in µL/min per million cells; 0 means that no clearance was seen.
Cells with "–" have no entry in this list.

For N#Cc1ccccc1Cl the data give logP 2.2 and vapor pressure -1.347 (log10 mmHg).
For Nc1ccc(Cl)cc1C(=O)c1ccccc1 the data give logP 3.16 and log solubility -4.888 (log10 mol/L).
For Nc1ccc(-c2ccc(N)cc2)cc1 the data give fraction unbound 0.1977 and intrinsic clearance 6.91 µL/min/10^6 cells.
For CC(C)(C)C(=O)Cl the data give logP 0.945 and vapor pressure 1.462 (log10 mmHg).
For COc1ncc(F)c2nc(S(=O)(=O)Nc3c(F)cccc3F)nn12 the data give melting point 207.2 °C and log solubility -1.75 (log10 mol/L).
For CC(c1ccc(C(F)(F)F)nc1)S(C)(=O)=NC#N (configuration not stated) the data give melting point 112 °C and logP 0.802 and vapor pressure -7.721 (log10 mmHg).
For C[C@H]1CC(=O)C[C@@H]2CC[C@H]3[C@@H]4CC[C@H](O)[C@@]4(C)CC[C@@H]3[C@]21C the data give logP 3.61 and log solubility -5.006 (log10 mol/L).
For CCCN(CC)CC1COC2(CCC(C(C)(C)C)CC2)O1 (configuration not stated) the data give log Henry constant -7.426 (log10 atm·m3/mol) and fraction unbound 0.005908 and intrinsic clearance 3.35 µL/min/10^6 cells.
For Cc1ccccc1OP(=O)(Oc1ccccc1C)Oc1ccccc1C the data give logP 6.3 and vapor pressure -4.836 (log10 mmHg).
For O=C(Nc1ccccc1-c1ccc(Cl)cc1)c1cccnc1Cl the data give fraction unbound 0.03167 and intrinsic clearance 17.28 µL/min/10^6 cells.
For CN(C)C(=O)Nc1cccc(C(F)(F)F)c1 the data give fraction unbound 0.2592 and intrinsic clearance 10.06 µL/min/10^6 cells.
For Br.CCCNC1CCc2c(O)cccc2C1 (configuration not stated) the data give melting point 256.5 °C and logP -0.16 and vapor pressure -9.639 (log10 mmHg).
For S=C1NCCN1 the data give vapor pressure -0.501 (log10 mmHg) and log Henry constant -6.395 (log10 atm·m3/mol).
For Clc1cc(Cl)cc(-c2cc(Cl)cc(Cl)c2)c1 the data give melting point 164 °C and vapor pressure -4.644 (log10 mmHg).
For CCC(C)(C#N)/N=N/C(C)(C#N)CC (stereo partly drawn) the data give logP 2.07 and vapor pressure -2.711 (log10 mmHg).
For Cc1cc(C)c(N)c(C)c1N the data give logP 1.05 and vapor pressure -4.056 (log10 mmHg).
For CC1(C)C(C=C(Cl)Cl)C1C(=O)OCc1cccc(Oc2ccccc2)c1 (configuration not stated) the data give log solubility -6.67 (log10 mol/L) and intrinsic clearance 68.4 µL/min/10^6 cells.
For CCC(C)OP(=S)([S-])OCCCCCC(C)C.CCC(C)OP(=S)([S-])OCCCCCC(C)C.[Zn+2] (configuration not stated) the data give melting point 2.42 °C and log solubility -2.669 (log10 mol/L) and vapor pressure -5.624 (log10 mmHg).
For CCCCCCCCCC[N+](C)(C)CCCCCCCCCC.CCCCCCCCCC[N+](C)(C)CCCCCCCCCC.O=C([O-])CCCCC(=O)[O-] the data give logP 3.6 and vapor pressure -9.274 (log10 mmHg).
For C[Si](C)(C)CC(O)(Cn1cncn1)c1ccc(F)cc1 (configuration not stated) the data give log solubility -3.71 (log10 mol/L) and vapor pressure -6.393 (log10 mmHg).
For COc1ccc(C(=CC(=O)N2CCOCC2)c2ccc(Cl)cc2)cc1OC the data give log solubility -4.13 (log10 mol/L) and log Henry constant -9.696 (log10 atm·m3/mol) and fraction unbound 0.09338 and intrinsic clearance 20.3 µL/min/10^6 cells.
For C=CCC1(C(C)C#CCC)C(=O)NC(=O)N(C)C1=O (configuration not stated) the data give logP 1.8 and log solubility -3.699 (log10 mol/L) and fraction unbound 0.26.
For O=P(N1CCOCC1)(N1CCOCC1)N1CCOCC1 the data give logP -0.98 and vapor pressure -8.013 (log10 mmHg).
For CS(=O)(=O)c1ccc(C(=O)C2C(=O)CCCC2=O)c([N+](=O)[O-])c1 the data give fraction unbound 0.3541 and intrinsic clearance 0.35 µL/min/10^6 cells.
For CC(C)(C)OOC(C)(C)C#CC(C)(C)OOC(C)(C)C the data give log solubility -5.115 (log10 mol/L) and vapor pressure -4.089 (log10 mmHg).
For CCCCC(CC)C(=O)OOC(C)(C)CC(C)(C)C (configuration not stated) the data give melting point -28 °C and log solubility -5.95 (log10 mol/L).
For F/C(=C\Cl)C(F)(F)F the data give logP 2.4 and log solubility -2.439 (log10 mol/L).
For CC[C@H]1CCC[C@H](O[C@H]2CC[C@H](N(C)C)[C@@H](C)O2)[C@@H](C)C(=O)C2=C[C@@H]3[C@@H](C=C[C@@H]4C[C@@H](O[C@@H]5O[C@@H](C)[C@H](OC)[C@@H](OC)[C@H]5OC)C[C@@H]34)[C@@H]2CC(=O)O1 the data give melting point 84 °C and logP 5 and vapor pressure -9.648 (log10 mmHg).
For Clc1cc2oc3c(Cl)c(Cl)c(Cl)c(Cl)c3c2cc1Cl the data give melting point 226 °C and log solubility -10.66 (log10 mol/L).

2 of these entries, quoted again:

compound	melting point (°C)	logP	log solubility (log10 mol/L)	vapor pressure (log10 mmHg)	log Henry constant (log10 atm·m3/mol)	fraction unbound	intrinsic clearance (µL/min/10^6 cells)
C=CCC1(C(C)C#CCC)C(=O)NC(=O)N(C)C1=O (configuration not stated)	–	1.8	-3.699	–	–	0.26	–
C[Si](C)(C)CC(O)(Cn1cncn1)c1ccc(F)cc1 (configuration not stated)	–	–	-3.71	-6.393	–	–	–